Data published in US8207347B2, “Pyridone derivatives as NK3 antagonists” (H. Lundbeck A/S, priority 2009, dated 2012).

Amino acid sequences for entries named in this document (tags omitted).
UniProt P29371, whole entry: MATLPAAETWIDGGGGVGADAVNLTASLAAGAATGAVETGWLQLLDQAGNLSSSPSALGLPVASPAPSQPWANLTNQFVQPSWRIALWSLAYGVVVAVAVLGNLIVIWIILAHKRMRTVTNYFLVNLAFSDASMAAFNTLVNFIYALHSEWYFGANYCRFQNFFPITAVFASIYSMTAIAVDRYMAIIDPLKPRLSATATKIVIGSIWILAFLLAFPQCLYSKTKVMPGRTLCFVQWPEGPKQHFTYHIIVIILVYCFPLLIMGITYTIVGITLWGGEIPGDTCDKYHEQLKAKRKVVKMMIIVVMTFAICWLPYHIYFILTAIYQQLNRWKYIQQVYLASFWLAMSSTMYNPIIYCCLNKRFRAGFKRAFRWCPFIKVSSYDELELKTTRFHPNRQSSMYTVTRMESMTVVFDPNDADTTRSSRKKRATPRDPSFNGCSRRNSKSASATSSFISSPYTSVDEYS

Target: T1, human NK3 receptor (Homo sapiens, UniProt P29371)
T1 construct: expressed in transfected cells
Experiment: NK3 receptor efficacy and potency assay (Calcium 4 Assay kit, FDSS 7000)
Format: cell-based
Conditions: dose-response curve with NKB in BHK cells expressing human NK3 receptor
Method: BHK cells stably expressing the human NK3 receptor were seeded in 100 μl media in black walled clear-base 96-wells plates (Costar) aiming at a confluency of 95-100% at the day of assay. The assay was performed according to the Calcium 4 Assay kit (Molecular Devices). At the day of the assay, the media was removed and the cells were washed once with the HBSS buffer (Hanks BSS buffer, pH 7.4 containing 20 mM Hepes) before 100 μl of a solution of the calcium assay reagent dissolved in the HBSS buffer containing 2.5 mM probinicid was added to the cells. The plates were incubated for 60 min at 34° C., 10% CO2 before use in the FDSS 7000 for examination of fluorescence. […]
For efficacy and potency evaluation of compounds, these were diluted in HBSS buffer prior to test. For test of agonist activity, 25 μl of the diluted compound solution was added and the plate was analyzed for 5 minutes in the FDSS 7000. […] The plates were subsequently analyzed for 5 minutes before the assay was terminated. The maximal increase in fluorescence over background following each ligand addition was determined. The IC50 value was calculated using sigmoidal variable slope curve fitting, and the cIC50 value was determined using the equation (cIC50=IC50/(1+(EC85/EC50))), where EC85 and EC50 for NKB were determined as described above.

Substance: neurokinin B [NKB]
- EC85 concentration of NKB: ~2 nM
